Test results reported in paper PMC9600270 (Cancers, 2022).

Legend:
RD cells = assay: N6L treatment, MTT cell viability, RD; format: cell-based; conditions: N6L 0-100 μM, 72 h
Rh30 cells = assay: N6L treatment, MTT cell viability, Rh30; format: cell-based; conditions: N6L 0-100 μM, 72 h

CC(=O)N[C@@H](CCCCNC(=O)[C@H](CCCNC(=N)N)NC(=O)[C@@H]1CCCN1C[C@@H](N)CCCCN)C(=O)NC(C)(C)C(=O)NCC(=O)N[C@@H](CCCCNC(=O)[C@H](CCCNC(=N)N)NC(=O)[C@@H]1CCCN1C[C@@H](N)CCCCN)C(=O)NC(C)(C)C(=O)NCC(=O)N[C@@H](CCCCNC(=O)[C@H](CCCNC(=N)N)NC(=O)[C@@H]1CCCN1C[C@@H](N)CCCCN)C(=O)NC(C)(C)C(=O)NCC(=O)N[C@@H](CCCCNC(=O)[C@H](CCCNC(=N)N)NC(=O)[C@@H]1CCCN1C[C@@H](N)CCCCN)C(=O)NC(C)(C)C(=O)NCC(=O)N[C@@H](CCCCNC(=O)[C@H](CCCNC(=N)N)NC(=O)[C@@H]1CCCN1C[C@@H](N)CCCCN)C(=O)NC(C)(C)C(=O)NCC(=O)N[C@@H](CCCCNC(=O)[C@H](CCCNC(=N)N)NC(=O)[C@@H]1CCCN1C[C@@H](N)CCCCN)C(=O)NC(C)(C)C(=O)NCC(N)=O [N6L]
IC50 (RD cells): 12.3 µM
IC50 (Rh30 cells): 10.2 µM
